# The list shows a part of the results, in another mix than the full data. Activity calls are given as the source filed them.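 How the source made its calls: active means inhibition above a set limit, the median over all tested compounds plus 3 SD (cut at about 9.5% in these data); inconclusive means no clear call, values can overlap the other calls; inactive means the rest.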
# System: HMG-CoA reductase (Enterococcus faecalis, mvaE)
# Test: class II HMG-CoA reductase enzyme inhibition – biochemical, Enterococcus faecalis, primary screen (AID 1066);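 further: enzyme runs in reverse so mevalonate oxidation gives rising NADPH absorbance; 0% = complete reaction with DMSO and 100% = background rate lacking mevalonate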
# Conditions: purified E. faecalis HMGR, NADPH absorbance 340 nm kinetic; at 10 µM; active compounds read high
row,Compound,inhibition
1,CC(C)(C)C(=O)NC(Sc1ccccc1)C(Cl)(Cl)Cl (centres undefined),inactive: -0.87%
2,CCOc1ccc(C2=NCC(CBr)S2)cc1 (centres undefined),inactive: -4.15%
3,O=P1(Nc2nc3ccc(Cl)cc3s2)COc2ccccc2O1 (centres undefined),inactive: -4.36%
4,CC(=O)Nc1ccc(Oc2c([N+](=O)[O-])cc([N+](=O)[O-])cc2[N+](=O)[O-])cc1,inactive: -4.03%
5,CCOC(=O)NC(Sc1ccccc1)C(Cl)(Cl)Cl (centres undefined),inactive: 2.19%
6,c1ccc(-c2nn[nH]n2)c(-c2nn[nH]n2)c1,inactive: -2.44%
7,O=C(NC1CCS(=O)(=O)C1)NP(=S)(Oc1ccccc1)Oc1ccccc1 (centres undefined),inactive: -1.24%
8,CCNC(=S)/N=C(\N)N[N+](=O)[O-],inactive: -1.92%
9,O=c1c2cc([N+](=O)[O-])ccc2[nH]c2c([N+](=O)[O-])cc([N+](=O)[O-])cc12,inactive: 2.34%
10,CCC(=O)N1C2C3N(C(=O)CC)C1C1N(C(=O)CC)C(C(N1C(=O)CC)N3C(=O)CC)N2C(=O)CC,inactive: -4.82%
11,Cc1ccc(OP(=O)(Nc2ccccn2)Oc2ccc(C)cc2)cc1,inactive: 3.19%
12,CC(=O)NC(SC(=S)N(CC(C)C)CC(C)C)C(Cl)(Cl)Cl (centres undefined),inactive: 1.66%
13,COC(=O)c1cc2c(s1)N=C(c1ccccc1)N(C)P2(=O)N1CCOCC1 (centres undefined),inactive: -2.28%
14,O=P(Nc1ccccn1)(c1ccc(Br)cc1)c1ccc(Br)cc1,inactive: 0.32%
15,O=C(OC1CN2CCC1CC2)c1cccc(Cl)c1 (centres undefined),inactive: -7.74%
16,C(Cc1nn[nH]n1)Cc1nn[nH]n1,inactive: -5.01%
17,CC(=O)NC(SC(=S)N(C)C)C(Cl)(Cl)Cl (centres undefined),inactive: -3.51%
18,c1nnnn1CCn1cnnn1,inactive: -0.96%
19,O=P(Nc1nccs1)(c1ccccc1)c1ccccc1,inactive: 2.74%
20,CC(C)C(=O)NC(Sc1ccccc1)C(Cl)(Cl)Cl (centres undefined),inactive: -5.38%
21,O=[N+]([O-])c1cc([N+](=O)[O-])c(CCNc2ccccc2)c([N+](=O)[O-])c1,inactive: 1.83%
22,CCc1nc2c(n1)c1c(non1O)c1c2no[n+]1[O-],inactive: -0.55%
23,Cc1ccc(NP(=O)(Oc2ccccc2)Oc2ccccc2)nc1,inactive: -0.45%
24,CC(=O)N1C2C3N(C(C)=O)C1C1N(C(C)=O)C(C(N1C(C)=O)N3C(C)=O)N2C(C)=O,inactive: -5.78%
25,O=[N+]([O-])c1cccc2n[nH]nc12,inactive: -5.99%
26,COc1ccc(C2=NCC(CBr)S2)cc1 (centres undefined),inactive: -1.29%
27,CC1CCN(C(=O)Oc2c(Cl)cc(Cl)c3cccnc23)CC1,inactive: 3.75%

row,Compound,inhibition
1,CN(C)C(=O)OCCc1n(C)cc[n+]1C,inactive: -2.14%
2,CC(C)=N/N=C(\N)N[N+](=O)[O-],inactive: -2.21%
3,CCN(/C(=N/P(=O)(N1CCOCC1)N1CCOCC1)N1CCOCC1)c1ccc(OC)cc1,inactive: 1.37%
4,O=[N+]([O-])c1ncn(CCn2ncnc2[N+](=O)[O-])n1,inactive: 1.1%
5,Cc1cc(SC(NC(=O)c2ccc(F)cc2)C(Cl)(Cl)Cl)ncn1 (centres undefined),inactive: 1.17%
6,CCOP(=O)(Nc1ccccc1)OCC,inactive: 1.31%
7,CCN(N=Nc1nonc1N)c1nonc1N,inactive: -0.1%
8,CN1CCCC(OC(=O)C(c2ccccc2)c2ccccc2)C1 (centres undefined),inactive: -0.04%
9,Clc1ccc(Cl)c(NC2=NCC(CBr)S2)c1 (centres undefined),inactive: -0.15%
10,COc1ccccc1OP(=O)(Nc1ccc(C)cn1)Oc1ccccc1OC,inactive: -3.71%
11,Cc1ccc(N/C(=N/P(=O)(N2CCOCC2)N2CCOCC2)N2CCOCC2)cc1,inactive: -11.3%
12,NC(=O)c1cc([N+](=O)[O-])cc([N+](=O)[O-])c1N,inactive: 1.76%
13,O=C(NC(Sc1ccncn1)C(Cl)(Cl)Cl)c1ccccc1 (centres undefined),inactive: 2.58%
14,Cc1c2non([O-])c-2c(C)[n+](=O)[n+]1[O-],inactive: -4.09%
15,Oc1ccccc1CNc1ccccn1,inactive: -2.15%
16,CC(C)CC(=O)NC(Sc1ccc(Cl)cc1)C(Cl)(Cl)Cl (centres undefined),inactive: -3.75%
17,COc1ccc2nc(NP(=O)(c3ccccc3)c3ccccc3)sc2c1,inactive: -1.42%
18,Cc1c2c(nc3ccccc13)SC(C(Cl)Cl)C2 (centres undefined),inactive: -3.11%
19,Cc1cc(=O)[nH]c(N[N+](=O)[O-])n1,inactive: -4.34%
20,O=C(OC1CN2CCC1CC2)C12CC3CC(CC(C3)C1)C2 (centres undefined),inactive: 1.59%
21,COc1ccc(N/C(=N/P(=O)(N2CCOCC2)N2CCOCC2)N2CCOCC2)cc1,inactive: -1.27%
22,Cc1ccc2nc3c(c(C)c2c1)CC(C(Cl)Cl)S3 (centres undefined),inactive: -3.1%
23,O=[N+]([O-])c1cc([N+](=O)[O-])c(-c2ccn[nH]2)s1,inactive: -4.93%
24,CC(C)NC(=O)NP(=O)(Oc1ccccc1)Oc1ccccc1,inactive: -16.1%
25,CCN(CC)C(=S)SC(NC=O)C(Cl)(Cl)Cl (centres undefined),inactive: -0.98%
26,ClCCSc1nnc(-c2cccnc2)o1,inactive: -4.48%
27,Cc1cc(SC(NC(=O)c2ccccc2)C(Cl)(Cl)Cl)nc(C(C)C)n1 (centres undefined),inactive: -1.64%

row,Compound,inhibition
1,Cc1cc(SC(NC=O)C(Cl)(Cl)Cl)ncn1 (centres undefined),inactive: -3.62%
2,O=P(Nc1ccccn1)(c1cccc2ccccc12)c1cccc2ccccc12,inactive: -2.83%
3,O=C(COc1ccccc1)OC1CN2CCC1CC2 (centres undefined),inactive: -1.48%
4,COP1(=S)c2c(C)nn(CCC#N)c2N=C(c2ccc(F)cc2)N1C (centres undefined),inactive: -12.9%
5,CCC(C)N(CC(C)C)C(=S)SC(NC(C)=O)C(Cl)(Cl)Cl (centres undefined),inactive: -6.6%
6,Clc1n[nH]nc1-c1nn[nH][15n]1,inactive: -3.21%
7,O=P1(Nc2ccccn2)COc2ccccc2OC1,inactive: -1.27%
8,CN(C(=O)Cc1ccc(Cl)c(Cl)c1)[C@@H]1CCCC[C@H]1N1CCCC1,inactive: 4.79%
9,CC(C)/C=N\N=C(\N)N[N+](=O)[O-],inactive: -0.66%
10,CN(C)C1(CNC(=O)c2ccc(S(C)(=O)=O)cc2)CCCCC1,inactive: 6.34%
11,CC1CCC(C(C)C)C(OP(=O)(Nc2ccccn2)c2ccccc2)C1 (centres undefined),inactive: -6.08%
12,Cc1nn(-c2ccccc2)c2c1P(=O)(N1CCOCC1)N(C)C(c1ccccc1)=N2 (centres undefined),inactive: -3.19%
13,Cc1ccc(OCC(=O)OC2CN3CCC2CC3)cc1 (centres undefined),inactive: -0.43%
14,O=P1(Nc2ccc(Br)cn2)COc2ccccc2OC1,inactive: 2.17%
15,O=P1(Nc2ncccn2)COc2ccccc2OC1,inactive: 4.12%
16,O=P(Nc1nccs1)(Oc1ccccc1)Oc1ccccc1,inactive: -3.61%
17,O=P(Nc1nccs1)(c1ccccc1)c1nc2ccccc2s1 (centres undefined),inactive: -9.85%
18,CCOP1(=S)c2c(C)nn(CCC#N)c2N=C(c2ccccc2F)N1C (centres undefined),inactive: -9.14%
19,CCOP1(=S)c2c(C)nn(CCC#N)c2N=C(c2ccc(F)cc2)N1C (centres undefined),inactive: -1.1%
20,O=[N+]([O-])c1ccc2c(c1)nnn2O,inactive: -4.53%
21,Cc1cccc(OCC(=O)OC2CN3CCC2CC3)c1 (centres undefined),inactive: -5.02%
22,COc1cc(C(=O)NCC2(N3CCOCC3)CCCCC2)cc(Cl)c1OC(C)C,inactive: -5.69%
23,CCOP(=O)(Nc1cccc2ccccc12)OCC,inactive: 1.2%
24,COc1cc(C2NCCC3(OCCO3)C2(C)C)cc(OC)c1OC (centres undefined),inactive: -7.64%
25,Cc1ccc(NCCc2c([N+](=O)[O-])cc([N+](=O)[O-])cc2[N+](=O)[O-])cc1,inactive: -0.92%
